Measurements published in patent US7115661B1, “Methods and compositions for mitigating pain” (dated 2006).
Like-named read-outs stand apart in the source and are kept apart here.

Chains of the proteins cited; added tags and fusions are not shown. Lines headed by an entry give the natural chain unless they say otherwise; changes in a name come on top. Residues count along the entry.
UniProt P14867, 28-456 limits assumed: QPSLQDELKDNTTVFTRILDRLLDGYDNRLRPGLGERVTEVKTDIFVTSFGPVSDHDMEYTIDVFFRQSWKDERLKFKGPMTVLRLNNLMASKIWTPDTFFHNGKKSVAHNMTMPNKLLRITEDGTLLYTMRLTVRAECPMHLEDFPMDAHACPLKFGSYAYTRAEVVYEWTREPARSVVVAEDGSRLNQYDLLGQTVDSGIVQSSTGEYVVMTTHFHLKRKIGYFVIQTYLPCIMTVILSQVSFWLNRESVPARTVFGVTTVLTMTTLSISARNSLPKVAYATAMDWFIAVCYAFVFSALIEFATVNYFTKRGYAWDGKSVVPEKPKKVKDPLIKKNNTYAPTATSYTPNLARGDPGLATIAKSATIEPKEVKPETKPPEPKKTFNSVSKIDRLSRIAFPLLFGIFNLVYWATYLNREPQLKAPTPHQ
UniProt P18505, 26-474 limits assumed: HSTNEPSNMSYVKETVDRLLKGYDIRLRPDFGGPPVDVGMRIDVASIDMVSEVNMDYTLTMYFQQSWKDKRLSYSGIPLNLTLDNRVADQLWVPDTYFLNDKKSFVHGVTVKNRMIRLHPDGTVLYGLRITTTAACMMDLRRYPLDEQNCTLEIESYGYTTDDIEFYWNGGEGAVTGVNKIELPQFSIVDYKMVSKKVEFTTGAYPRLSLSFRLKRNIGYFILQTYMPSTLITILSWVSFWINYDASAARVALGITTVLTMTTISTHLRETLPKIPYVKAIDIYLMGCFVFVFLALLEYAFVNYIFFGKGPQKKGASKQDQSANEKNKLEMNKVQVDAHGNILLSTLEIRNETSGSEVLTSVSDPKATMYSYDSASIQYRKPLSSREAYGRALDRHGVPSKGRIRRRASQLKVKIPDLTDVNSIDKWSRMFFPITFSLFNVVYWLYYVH
UniProt P18507, 40-475 limits assumed: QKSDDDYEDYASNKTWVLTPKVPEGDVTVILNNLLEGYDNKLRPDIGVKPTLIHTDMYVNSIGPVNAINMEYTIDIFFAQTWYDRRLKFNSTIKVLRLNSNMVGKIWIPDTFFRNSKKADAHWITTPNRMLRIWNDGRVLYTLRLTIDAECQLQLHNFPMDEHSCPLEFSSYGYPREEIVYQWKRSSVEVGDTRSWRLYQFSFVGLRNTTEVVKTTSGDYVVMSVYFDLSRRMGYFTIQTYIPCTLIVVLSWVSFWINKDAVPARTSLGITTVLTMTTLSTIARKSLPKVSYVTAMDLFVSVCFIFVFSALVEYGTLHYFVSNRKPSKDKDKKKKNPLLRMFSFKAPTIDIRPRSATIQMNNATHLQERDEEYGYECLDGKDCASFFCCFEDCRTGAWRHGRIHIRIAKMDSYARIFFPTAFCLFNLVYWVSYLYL
UniProt P20595: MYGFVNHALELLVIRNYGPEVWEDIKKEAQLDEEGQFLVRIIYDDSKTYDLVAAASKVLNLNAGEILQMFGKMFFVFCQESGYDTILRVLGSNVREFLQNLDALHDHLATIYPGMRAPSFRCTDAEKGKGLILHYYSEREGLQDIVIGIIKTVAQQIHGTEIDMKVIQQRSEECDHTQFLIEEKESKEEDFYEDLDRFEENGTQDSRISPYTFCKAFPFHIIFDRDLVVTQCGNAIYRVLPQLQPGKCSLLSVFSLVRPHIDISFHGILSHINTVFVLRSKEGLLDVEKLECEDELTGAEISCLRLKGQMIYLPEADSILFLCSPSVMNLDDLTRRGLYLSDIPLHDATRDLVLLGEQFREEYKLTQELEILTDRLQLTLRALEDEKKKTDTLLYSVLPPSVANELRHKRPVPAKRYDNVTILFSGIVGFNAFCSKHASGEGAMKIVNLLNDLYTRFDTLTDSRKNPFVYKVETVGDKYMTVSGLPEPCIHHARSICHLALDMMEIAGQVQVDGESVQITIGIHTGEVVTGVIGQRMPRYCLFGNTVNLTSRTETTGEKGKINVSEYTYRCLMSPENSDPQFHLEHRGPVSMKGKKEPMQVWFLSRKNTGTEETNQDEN

How the values were obtained:
[1] = biological target: α1β1γ2L isoform of human recombinant GABAA receptors (Homo sapiens, UniProt P14867+P18505+P18507); test: GABA-induced membrane current in Xenopus oocytes, two-electrode voltage clamp; conditions: 200 μM drug, 10 μM GABA, same oocyte
[2] = NO release measured amperometrically; conditions: in the absence nor the presence of cysteine
[3] = biological target: T1, soluble guanylyl cyclase (GCase) (Rattus norvegicus, UniProt P20595); test: Activation of soluble guanylyl cyclase, rat aorta homogenate, radioimmunoassay; conditions: for Activation of GCase in the presence of DTT: DTT 2 mM; for maximal (aorta), relative to GTN: normalized to GTN + 1 mM cysteine maximal response; for EC50: read-out: EC-50 (aorta)
rats [4] = test: Blood pressure in conscious, freely moving rats after subcutaneous injection; conditions: 400 μmol/kg subcutaneously
isolated rat aorta = test: Cyclic GMP accumulation in intact isolated rat aorta; conditions: 1 min
rats [5] = test: Blood pressure in anesthetized rats after bolus intravenous injection; conditions: Va at doses lower than 2 μmol/kg
rat aortic tissue = test: Relaxation of isolated rat aorta contracted with phenylephrine; conditions: read-out: EC-50 for relaxation
[6] = biological target: T1, soluble guanylyl cyclase (GCase); test: Activation of soluble guanylyl cyclase, rat hippocampus homogenate; conditions: for maximal (hipp.), relative to GTN: normalized to GTN + 1 mM cysteine maximal response; for EC50: read-out: EC-50 (hipp.)
[7] = tested on: GTN-tolerant isolated rat aorta; test: Relaxation of GTN-tolerant isolated rat aorta; conditions: tissue made tolerant with 0.5 mM GTN for 30 min
[8] = rat aorta homogenate, absence of any added thiol
[9] = rat aorta homogenate, L-cysteine 1 mM
[10] = rat hippocampus homogenate, L-cysteine 1 mM

## Cc1ncsc1CCCl
[1]
  potentiation of the control GABA response: substantially potentiated

## O=[N+]([O-])OCC(CO[N+](=O)[O-])O[N+](=O)[O-]
[2]
  NO release at a rate measurable amperometrically: does not release NO at a rate measurable amperometrically
[3]; rat aorta homogenate
  Activation of GCase in the presence of DTT: does not
[3]; [8]
  Activation of GCase without added thiol: requires added cysteine
Rats [4]
  effect on arterial blood pressure: small and transient decrease
Isolated rat aorta; 1 μM drug
  cyclic GMP accumulation: significantly increased
Isolated rat aorta; 10 μM drug
  cyclic GMP accumulation: significantly increased
Rats [5]
  effect on arterial blood pressure: substantial and dose-dependent decrease

## O=[N+]([O-])OC1CSSCC1O (stereo not drawn)
Rat aortic tissue; another series of experiments
  EC50: 0.437 µM
Isolated rat aorta; 1 μM drug
  cyclic GMP accumulation: did not significantly increase
Isolated rat aorta; 10 μM drug
  cyclic GMP accumulation: did not

## Cc1cc(=O)oc2cc(SSCC(CO[N+](=O)[O-])O[N+](=O)[O-])ccc12 (stereo not drawn)
[3]; 1 mM cysteine absent (−)
  maximal (aorta), relative to GTN: 1.7
  EC50: 1.8 µM
[3]; 1 mM cysteine present (+)
  maximal (aorta), relative to GTN: 2.3
  EC50: 65 µM
[6]; 1 mM cysteine absent (−)
  maximal (hipp.), relative to GTN: 1.8
  EC50: 17 µM
[6]; 1 mM cysteine present (+)
  maximal (hipp.), relative to GTN: 3.0
  EC50: 51 µM

## O=[N+]([O-])OCC(CSS(=O)(=O)O)O[N+](=O)[O-] (stereo not drawn)
[7]
  maximal relaxant effect compared to untreated tissue: not significantly different
[7]; difference not statistically significant
  change of EC-50 for relaxation in tolerant versus untreated tissue: increased approximately threefold
[3]; rat aorta homogenate
  Activation of GCase in the presence of DTT: activates GCase
[3]; [8]
  EC-50 for GCase activation: submillimolar
Rat aortic tissue; first series of experiments
  EC50: 6.59 µM

## COC(=O)c1ccccc1SSCC(CO[N+](=O)[O-])O[N+](=O)[O-] (stereo not drawn)
[3]; 1 mM cysteine absent (−)
  maximal (aorta), relative to GTN: 1.0
  EC50: 180 µM
[3]; 1 mM cysteine present (+)
  maximal (aorta), relative to GTN: 2.2
  EC50: 180 µM
[6]; 1 mM cysteine absent (−)
  maximal (hipp.), relative to GTN: 2.1
  EC50: 57 µM
[6]; 1 mM cysteine present (+)
  maximal (hipp.), relative to GTN: 5.1
  EC50: 140 µM

## O=[N+]([O-])OC1CSSCC1O[N+](=O)[O-] (stereo not drawn)
[3]; [9]
  Efficacy to stimulate GCase activity compared to GTN: equivalent to GTN
  Potency for activation of GCase compared to GTN: equivalent to GTN
Rat aortic tissue; another series of experiments
  EC50: 0.0084 µM
Isolated rat aorta; 1 μM drug
  cyclic GMP accumulation: did not significantly increase
Isolated rat aorta; 10 μM drug
  cyclic GMP accumulation: significantly increased
[6]; [10]
  Efficacy to stimulate GCase activity compared to GTN: equivalent to GTN
  Potency for activation of GCase compared to GTN: equivalent to GTN
